We go through four compounds from EP4825370A1, “COSMETIC, COSMECEUTICAL AND/OR PHARMACEUTICAL COMPOSITION, USES AND METHODS” (dated 2026).

For one assay, the system named is EPO release. The settings on record: prior art WO2008014414; cited from earlier work.
The next assay deals with lysozyme release. The note with it: prior art WO2008014414; cited from earlier work.
The next assay relates to IL-6. Nature of the assay: In vitro evaluation of inhibition of IL-6 production (ELISA, cell supernatant). The settings on record: 60 ppm, human keratinocytes, 48 hours, relative to the PMA/LPS-stimulated group. How it is done: (§1) Human keratinocytes were seeded in 75 cm^2 flasks cultured and expanded in a humidified incubator at 37°C in the presence of 5% CO2, using specific culture medium. Upon reaching 70-80% confluence, the cells were trypsinized and seeded in 6-well plates for subsequent incubation with the test product and evaluation of the proposed parameter. The cells were incubated with 2 non-cytotoxic concentrations for the peptide (120 ppm and 60 ppm). Next, the cells were incubated under the same culture conditions cited above for 48 hours for subsequent collection of the cell supernatant. Next, quantification of the pro-inflammatory mediator IL-6 was performed by the ELISA technique.

The subject of a further assay is IL-1alpha. As to the kind of experiment: In vitro evaluation of inhibition of IL-1 alpha production (ELISA, cell lysate). The settings on record: 120 ppm, human keratinocytes, 6 hours, relative to the PMA/LPS-stimulated group. As for the experimental part:
as §1, with “6” for “48”, “lysate.” for “supernatant.”, “IL-1alpha” for “IL-6”
(ELISA stands for enzyme-linked immunosorbent assay.)

With MA-RPGEAAVA, the “inhibition of EPO release” value in the assay on EPO release is on record as “did not show any inhibition”.

For the compound Ac-RPGEAAVA, in the assay with lysozyme release, the “inhibition in lysozyme release” value is “did not show any inhibition”.

`CC(C)[C@H](NC(=O)[C@H](C)NC(=O)[C@H](C)NC(=O)CCC(=O)O)C(=O)N[C@@H](C)C(=O)O`: the “reduces IL-6 levels” value in the assay with IL-6 is 33%. The “reduces IL-1α levels” value with IL-1alpha worked out at 31%.

In the case of MA-SKTAAKGEAAAERPGEAAVA, in the assay with EPO release, the “inhibition of EPO release” value is listed as “did not show any inhibition”.
